Assay results published in BindingDB's records for US10053433, “Androgen receptor antagonists” (2018).

Protein sequences, listed by entry. Tags and fused reporters are not part of them. Lines headed by an entry give the natural chain unless they say otherwise; changes in a name come on top.
UniProt P10275: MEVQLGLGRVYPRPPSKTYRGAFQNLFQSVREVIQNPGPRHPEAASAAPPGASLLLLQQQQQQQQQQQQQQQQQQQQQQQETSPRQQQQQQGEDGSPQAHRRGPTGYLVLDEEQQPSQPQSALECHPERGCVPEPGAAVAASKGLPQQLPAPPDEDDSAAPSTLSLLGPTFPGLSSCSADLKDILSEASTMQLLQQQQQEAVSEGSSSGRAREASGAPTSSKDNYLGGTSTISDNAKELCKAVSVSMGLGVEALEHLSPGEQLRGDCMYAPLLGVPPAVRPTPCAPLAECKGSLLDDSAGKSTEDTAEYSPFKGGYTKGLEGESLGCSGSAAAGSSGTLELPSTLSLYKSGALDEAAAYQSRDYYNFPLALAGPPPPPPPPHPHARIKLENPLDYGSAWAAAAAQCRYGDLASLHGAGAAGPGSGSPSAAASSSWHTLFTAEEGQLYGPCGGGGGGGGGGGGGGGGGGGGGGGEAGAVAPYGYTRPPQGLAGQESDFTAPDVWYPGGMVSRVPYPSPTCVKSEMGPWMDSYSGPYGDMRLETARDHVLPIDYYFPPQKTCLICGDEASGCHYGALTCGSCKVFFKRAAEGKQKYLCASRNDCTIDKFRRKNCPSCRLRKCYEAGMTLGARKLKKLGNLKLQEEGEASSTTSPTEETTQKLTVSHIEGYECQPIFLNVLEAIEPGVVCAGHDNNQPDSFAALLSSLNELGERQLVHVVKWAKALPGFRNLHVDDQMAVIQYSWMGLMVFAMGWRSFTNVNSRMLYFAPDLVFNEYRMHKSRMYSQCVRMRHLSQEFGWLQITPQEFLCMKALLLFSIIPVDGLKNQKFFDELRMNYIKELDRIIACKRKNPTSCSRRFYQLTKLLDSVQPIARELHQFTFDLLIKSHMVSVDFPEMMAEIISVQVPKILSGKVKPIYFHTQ

Biological target: Androgen receptor (Homo sapiens, UniProt P10275)
Test: Gal4-luciferase reporter assay
Settings: pH 7.5

C[C@](O)(CS(=O)(=O)c1ccc(F)cc1)C(=O)Nc1ccc([N+](=O)[O-])c(C(F)(F)F)c1
IC50: 22.4 µM
